Assay results: US20090221708A1, “Medicinal preparation” (priority 2004, published 2009)

Tested on: hepatitis C
Conditions: human, in vivo

Cc1cc(Cl)ccc1OCC(=O)O [4-chlorine-2-methyl phenoxyacetic acid]
BKS: 24 mm/h | Creatine: 0.35 mg/dL | Eosinophiles: 4.0% | Erythrocytes: 4.3 1 × 10^12/l | Glucose: 5.9 mmol/L | Haemoglobin: 123 g/L | Haemoglobin index: 1.0 | Leucocytes: 4.7 1 × 10^9/l | Lymphocytes: 23% | Monocytes: 4.0% | Neutrophiles: Segment core: 68% | Neutrophiles: Standard bar core: 4.9% | Potassium: 4.2 mmol/L | Protein: 7.1 g/dL | Sodium: 143 mmol/L | Thrombocytes, absolute: 127 Tsd. | Urea: 44.0 mg/dL | Uric acid: 6.8 mg/dL
